Data on 25 molecules can be found in PubChem BioAssay AID1272365 (Small Molecule Screening Facility, UW Madison, 2020).

The entries are a selection whose mix differs from that of the whole data set. Some results for these compounds are left out of this collection, so the calls shown say nothing about other tests. The source made the active and inactive calls. No stated cut-off is given here; in the data, active means inhibition mostly above about 37% (no sharp cut-off); inactive means mostly below about 20%.

The subject of the test is PriA–SSB C-terminal tail interaction (Klebsiella pneumoniae). The experiment in a line: inhibitors of Klebsiella pneumoniae PriA binding to SSB C-terminal tail, primary screen, biochemical, AlphaScreen (AID 1272365).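 Further: plate controls were negative control peptide for no effect and reference peptide for full effect.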 As to conditions: AlphaScreen SSBct-PriA binding, biotinylated peptide; at 33 µM; hits give high values.
The term inhibition denotes the relative decrease from the control value, in per cent. Turning to `CN(C)CCOC(=O)C(O)(c1ccccc1)C1CCCCC1` (stereo not given), the inhibition was inactive: -9.31%.

Turning to `O=C(NCC1(N2CCCCC2)CCCCC1)c1cc(F)c(F)cc1Cl`, the inhibition was inactive: 7.42%.

Consider `COc1ccc(C(=O)NCC2(N(C)C)CCCCC2)cc1`, for which the inhibition is inactive: -8%.

`CCN1CCCC(OC(=O)C2(O)c3ccccc3C=Cc3ccccc32)C1` (stereo not given): the inhibition was inactive: -11.8%.

Regarding `Cc1cc(C(=O)NCC2(N3CCCCC3)CCCCC2)ccc1[N+](=O)[O-]`, the inhibition was inactive: -5.61%.

For `O=C(NCC1(N2CCCCC2)CCCCC1)c1cccc(Br)c1`, the inhibition is inactive: -3.56%.

As for `Cc1ccccc1C(=O)NCC1(N2CCCCC2)CCCCC1`, the inhibition is inactive: -10.1%.

Turning to `CN(C)c1ccc(C(=O)NCC2(N(C)C)CCCCC2)cc1`, the inhibition was inactive: 10.6%.

Regarding `CN(C)C1CCCC1OC(=O)C(O)(c1ccccc1)c1ccccc1` (stereo not given), the inhibition is inactive: -13.2%.

Regarding `CCN(CC)CC(C)C(C)OC(=O)C(O)(c1ccccc1)c1ccccc1` (stereo not given), the inhibition was inactive: -8.07%.

`COc1cc(SC)ccc1C(=O)NCC1(N(C)C)CCCCC1`: the inhibition was inactive: 3.43%.

For the molecule `Cc1ccc(C(=O)NCC2(N3CCCCC3)CCCCC2)cc1`, the inhibition is inactive: 15.5%.

For `O=C(NCC1(N2CCCCC2)CCCCC1)c1cc([N+](=O)[O-])ccc1Cl`, the inhibition was inactive: 4.89%.

In the case of `CN1[C@@H]2CC[C@H]1CC(OC(=O)C(O)(c1ccccc1)c1ccccc1)C2` (stereo not given in full), the inhibition was inactive: -3.53%.

On to `COc1ccc(Br)c(C(=O)NCC2(N3CCCCC3)CCCCC2)c1`, for which the inhibition was inactive: 2.23%.

For `CC(C)Oc1ccc(C(=O)NCC2(N(C)C)CCCCC2)cc1`, the inhibition is inactive: -1.53%.

In the case of `O=C(OCCN1CCCC1)C(O)(c1ccccc1)c1ccccc1`, the inhibition was inactive: -3.71%.

In the case of `CN(C)c1cccc(C(=O)NCC2(N(C)C)CCCCC2)c1`, the inhibition is inactive: -8.16%.

Take `CCN(CC)CCCOC(=O)C(O)(c1ccccc1)c1ccccc1`: the inhibition is inactive: -8.15%.

With `O=C(OC1CN2CCC1CC2)C(CO)(c1ccccc1)c1ccccc1` (stereo not given), the inhibition is inactive: -1.96%.

In the case of `COc1cccc(C(=O)NCC2(N3CCCCC3)CCCCC2)c1`, the inhibition was inactive: 5.7%.

On to `COc1ccc(Cl)cc1C(=O)NCC1(N(C)C)CCCCC1`, for which the inhibition was inactive: 3.43%.

For the molecule `O=C(NCC1(N2CCCCC2)CCCCC1)c1cccc(Cl)c1`, the inhibition is inactive: -7.94%.

Consider `CN(C)C1(CNC(=O)c2ccc(Br)cc2)CCCCC1`, for which the inhibition was inactive: 4.1%.

On to `COc1cc(C(=O)NCC2(N(C)C)CCCCC2)c([N+](=O)[O-])cc1OC`, for which the inhibition is inactive: -7.42%.
